Measured values as given in publication PMC6482957 (Nature structural & molecular biology, 2018).

Test system: BD-RING-PHD (BRP) region of p300
Assay: 1H,15N HSQC NMR titration, p300 BD-RING-PHD
Assay type: binding, human
Details: 15N-labeled BD-RING-PHD, 298K, pH 7.0

H3_1–19: unmodified H3_1–19, which is the ligand of ZZ
Interaction with BD-RING-PHD: does not recognize
